Experimental data taken from ChEMBL document CHEMBL4014348, “Design, Multicomponent Synthesis, and Anticancer Activity of a Focused Histone Deacetylase (HDAC) Inhibitor Library with Peptoid-Based Cap Groups” (J Med Chem, 2017).

Target: T1, Histone deacetylase 8 (Homo sapiens, UniProt Q9BY41)
T1 sequence (Q9BY41 whole entry): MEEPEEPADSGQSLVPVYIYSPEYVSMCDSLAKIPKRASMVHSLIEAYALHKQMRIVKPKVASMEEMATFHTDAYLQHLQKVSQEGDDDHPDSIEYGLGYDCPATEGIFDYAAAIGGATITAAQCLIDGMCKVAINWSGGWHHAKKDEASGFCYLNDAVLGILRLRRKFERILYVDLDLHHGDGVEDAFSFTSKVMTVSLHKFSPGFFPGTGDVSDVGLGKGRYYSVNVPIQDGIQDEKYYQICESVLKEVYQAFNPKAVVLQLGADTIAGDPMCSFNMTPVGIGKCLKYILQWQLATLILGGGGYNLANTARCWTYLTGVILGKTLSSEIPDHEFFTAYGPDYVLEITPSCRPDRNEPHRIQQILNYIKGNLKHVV
Assay: Inhibition of human recombinant HDAC8 expressed in Escherichia coli using Z-L-Lys(epsilon-trifluoroacetyl)-AMC as substrate measured after 90 mins by fluorescence assay

- IC50: 1260 nM
Compound: O=C(CCCCCCC(=O)Nc1ccccc1)NO [VORINOSTAT]
